Amino acid sequences for entries named in this document (tags omitted).
UniProt O95870, whole entry: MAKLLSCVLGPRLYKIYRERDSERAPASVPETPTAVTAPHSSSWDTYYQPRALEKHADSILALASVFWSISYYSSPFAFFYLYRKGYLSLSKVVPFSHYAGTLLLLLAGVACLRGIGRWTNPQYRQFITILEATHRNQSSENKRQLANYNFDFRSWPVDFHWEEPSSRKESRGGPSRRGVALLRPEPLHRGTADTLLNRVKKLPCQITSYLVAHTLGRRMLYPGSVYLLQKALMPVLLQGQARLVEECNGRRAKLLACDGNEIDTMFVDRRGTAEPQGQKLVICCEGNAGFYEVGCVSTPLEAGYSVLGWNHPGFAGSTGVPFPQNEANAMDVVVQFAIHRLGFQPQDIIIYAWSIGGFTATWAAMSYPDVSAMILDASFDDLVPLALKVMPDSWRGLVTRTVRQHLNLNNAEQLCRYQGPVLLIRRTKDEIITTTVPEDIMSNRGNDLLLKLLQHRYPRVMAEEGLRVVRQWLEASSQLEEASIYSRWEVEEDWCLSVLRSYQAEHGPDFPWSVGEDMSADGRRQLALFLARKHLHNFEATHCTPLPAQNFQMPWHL
UniProt Q9Z1Q2, whole entry: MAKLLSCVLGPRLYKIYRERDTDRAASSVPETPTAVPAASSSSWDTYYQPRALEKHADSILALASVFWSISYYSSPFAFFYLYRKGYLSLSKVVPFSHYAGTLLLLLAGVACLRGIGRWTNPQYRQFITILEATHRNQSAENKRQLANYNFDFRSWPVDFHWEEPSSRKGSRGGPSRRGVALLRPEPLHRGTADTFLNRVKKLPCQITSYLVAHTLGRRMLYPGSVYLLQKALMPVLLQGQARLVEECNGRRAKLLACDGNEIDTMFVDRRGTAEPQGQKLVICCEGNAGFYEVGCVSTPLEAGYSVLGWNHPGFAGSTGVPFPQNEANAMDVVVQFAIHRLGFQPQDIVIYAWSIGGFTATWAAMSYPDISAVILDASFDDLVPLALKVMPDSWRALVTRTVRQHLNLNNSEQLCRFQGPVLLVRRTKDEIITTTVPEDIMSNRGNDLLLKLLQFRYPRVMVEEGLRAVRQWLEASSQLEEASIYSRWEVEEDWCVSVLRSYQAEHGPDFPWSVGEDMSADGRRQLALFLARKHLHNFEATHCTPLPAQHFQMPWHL

According to patent US20170313669A1, “LACTONE COMPOUNDS AND METHODS OF MAKING AND USING SAME” (THE SCRIPPS RESEARCH INSTITUTE, priority 2015, published 2017):

What was measured:
human ABHD16A = human ABHD16A (Homo sapiens, UniProt O95870); test: Competitive gel-based ABPP, human ABHD16A-transfected HEK293T proteome; type: biochemical; settings: read-out: IC50, gel-based ABPP; 30 min, 37° C., then FP-rhodamine 2 μM
[1] = Lipid substrate hydrolysis assay, mock-transfected HEK293T membrane proteome; settings: substrate 100 μM
Method: All the lipid species used in the lipid substrate hydrolysis assays were purchased from Avanti Polar Lipids Inc unless mentioned otherwise. In general, 20 μg of proteome was incubated with 100 μM lipid in a reaction volume of 100 μL in PBS at 30° C. with constant shaking. After 30 minutes the reaction was quenched with 350 μL of 2:1 (vol/vol) CHCl3: MeOH, doped with 0.5 nmol internal standard (17:1 FFA). The mixture was vortexed, and the centrifuged at 2800×g for 5 minutes to separate the aqueous (top) and organic (bottom) phase. The organic phase was collected. 5 μL of formic acid was added to the aqueous phase, and extracted again using 350 μL of 2:1 (vol/vol) CHCl3: MeOH using above mentioned protocol. The organic phase was collected, and pooled with the organic phase from the first extraction. […] All the data was collected and analyzed using the Agilent MassHunter Workstation software version B.04 using the Data Acquisition and Quantitative Analysis programs respectively. Measuring the area under the peak, and normalizing it to the internal standard quantified the product release for the lipid substrate hydrolysis assays. […] Some products from the substrate hydrolysis assays were detected in positive ion mode for qualitative identification. […]

ABHD16A (mouse) = ABHD16A (mouse) (Mus musculus, UniProt Q9Z1Q2); test: Lipid substrate hydrolysis assay, murine ABHD16A-transfected HEK293T membrane proteome

CCCCCCCCCCCCCC1OC(=O)/C1=C\CCCCCS(N)(=O)=O (centres unmarked) [Compound 16, (Z)-6-(2-Oxo-4-tridecyloxetan-3-ylidene)hexane-1-sulfonamide]
IC50 (human ABHD16A): 500 to 1000 nM

CCCCCCCCCCCCCC1OC(=O)C1CCCCCC(N)=O (centres unmarked)
IC50 (human ABHD16A): 5000 nM

CCCCC/C=C\C/C=C\CCCCCCCC(=O)O[C@H](COC(=O)CCCCCCCCCCCCCCCCC)COP(=O)(O)OC[C@H](N)C(=O)O
Lipase activity, Mock, Mean [1]: 2.2 nmol/mg/min
Lipase activity, ABHD16A, Mean (ABHD16A (mouse); substrate 100 μM): 27.9 nmol/mg/min
Km (ABHD16A (mouse); substrate of ABHD16A): 40 µM
Vmax (ABHD16A (mouse); substrate of ABHD16A): 35 ± 3 nmol/mg/min

NC(=O)CCCC/C=C1\C(=O)OC1CCCCCCCCCc1ccccc1 (centres unmarked) [Compound 15, (Z)-6-(2-Oxo-4-(9-phenylnonyl)oxetan-3-ylidene)hexanamide]
IC50 (human ABHD16A): 200 to 500 nM

NC(=O)CCCCCC1C(=O)OC1CCc1ccccc1 (centres unmarked)
IC50 (human ABHD16A): > 20000 nM
